# Ab-14 heavy chain CDR variants: yeast mating affinities

Source: Li et al. 2023 (doi:10.1038/s41467-023-39022-2), MIT Lincoln Laboratory and A-Alpha Bio; data file from the FLAb repository.

Binding partner: SARS-CoV-2 spike HR2 peptide, sequence PDVDLGDISGINAS.

Parent scFv Ab-14: VH joined to VL by three GGGGS repeats. Changes lie in the heavy chain CDRs alone.
VH: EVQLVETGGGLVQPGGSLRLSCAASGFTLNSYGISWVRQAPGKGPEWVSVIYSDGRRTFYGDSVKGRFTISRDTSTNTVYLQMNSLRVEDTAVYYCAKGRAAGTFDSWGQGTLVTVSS
VL: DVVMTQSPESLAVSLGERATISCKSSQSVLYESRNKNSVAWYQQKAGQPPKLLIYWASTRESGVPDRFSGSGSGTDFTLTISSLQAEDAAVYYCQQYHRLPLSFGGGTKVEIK

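The starting antibody came from a phage panning campaign against this peptide. This is the validation round: designs drawn from the data on random variants, tested in the same kind of assay. Group labels follow the data file (Ctrl: baseline library sampled from a position-specific scoring matrix, with some repeated check sequences; Rand: our label for a block that the file lists under HC and that is probably the random mutants of the ten best first-round binders; En: ensemble of fine-tuned language models; GP: Gaussian process model; GPLM: also part of the Gaussian process libraries; HC: hill climbing; Gen: genetic algorithm; Gibbs: Gibbs sampling; a sequence that several methods proposed may carry one label only). The scFvs were displayed on barcoded MATa yeast, the peptide on MATalpha yeast. After mating in shaken culture at 30 °C for 16 h, diploids were selected and their barcode pairs sequenced. Each replicate has its own calibration line, from reference interactions of the BCL2 family. Each pool was mated in six replicate cultures.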

Substitutions are numbered in sequence along the VH above, starting at 1 (not Kabat).
This list holds designs with at most six substitutions.
Each Kd is an estimate from the mating assay, the geometric mean of the replicates in which the pair was seen; lower is stronger.
An entry "no signal" has no value in the source: the pair was not observed among the diploids in any replicate. This suggests poor binding but is not conclusive.
As a blank, each scFv also met three strains without target: over all heavy chain designs, 1% of these pairings were detected, typically at 120 nM and seldom below 7.0 nM.

The variant S31E/G103V/F105C/S107Q [Rand] gave no signal (0 of 6 replicates). With N30V/S31D/F59Q/G61I/A101C [Rand] the result was no signal (0 of 6 replicates). The variant T28Y/S31E/R100K [GPLM_Gen] gave 11 nM (6 of 6 replicates). The variant S63Q/A101T [GPLM_Gen] gave 5.5 nM (3 of 6 replicates). The variant T28D/G61A/R100N/S107A [GP_Gen] gave 2.7 nM (6 of 6 replicates). For G61D/R100L/A101E [GP_HC], the assay gave 6.2 nM (6 of 6 replicates).

With G61L/A102H [Ctrl] the result was no signal (0 of 6 replicates). The variant A101P [Ctrl] showed 890 nM (1 of 6 replicates). The variant K65V [Ctrl] gave 18 nM (2 of 6 replicates). The variant G26K/G61A/A101L [GP_Gibbs] showed 190 nM (6 of 6 replicates). With G61S/A101L [Ctrl+GPLM_Gen] the result was 4.5 nM (7 of 12 replicates). The variant T28S/S31T/R100Q/A101T [GPLM_Gibbs] gave 4.0 nM (6 of 6 replicates).

For R56I/A101T [GPLM_Gen], the assay gave 13 nM (1 of 6 replicates). The variant N30E/G61A/A102G [GPLM_Gen] gave 6.2 nM (4 of 6 replicates). The variant T28N/S31E/S53A/G61A/R100K/S107V [En_HC] gave 660 pM (6 of 6 replicates). The variant N30R/S63R/S107L [Ctrl] gave 20 nM (1 of 6 replicates). The variant S31E/G61M/A101W [GPLM_HC] gave 13 nM (3 of 6 replicates). For T28V/L29W/S31D/I34S/S63D [Ctrl], the assay gave no signal (0 of 6 replicates).

The variant T28S/S63M/R100K/A101T/S107R [GP_Gibbs] gave 6.3 nM (1 of 6 replicates). The variant T28D/R56K/G61I [GPLM_Gibbs] showed 2.6 nM (6 of 6 replicates). For T28S/R100V/A101Q [GP_Gen], the assay gave 3.6 nM (6 of 6 replicates). The variant S31E/G61S/A101F/S107I [GP_HC] showed 26 nM (6 of 6 replicates). The variant T28P/G61D/R100Q [GP_HC] showed 13 nM (5 of 6 replicates). The variant T28E/N30S/S31E [Ctrl] showed 9.6 nM (6 of 6 replicates).

The variant G61S/R100K/A101T/S107T [GP_Gen] showed 1.3 nM (6 of 6 replicates). For T28S/S31D/G103L/S107M [GP_HC], the assay gave no signal (0 of 6 replicates). The variant S63N/R100Q/G103L/F105K/D106N [Ctrl] showed no signal (0 of 6 replicates). For R100Y/A101N [Ctrl], the assay gave 36 nM (5 of 6 replicates). With T28S/S31W/A101T [GPLM_Gen] the result was 65 nM (6 of 6 replicates). For R100G/T104W/D106T [Ctrl], the assay gave no signal (0 of 6 replicates).

The variant T28N/S63N/A101E [GP_Gen] showed 2.1 nM (6 of 6 replicates). The variant Y32F/R100A [Ctrl] showed 13 nM (5 of 6 replicates). With T28D/R57K/G61D/R100Q/A101E [GP_HC] the result was 12 nM (5 of 6 replicates). With G61D/R100Q/A101V/S107T [GP_HC] the result was no signal (0 of 6 replicates). The variant G61D/A101G/F105D [Ctrl] gave no signal (0 of 6 replicates). The variant T28E/S31E/S63H/A101T [GP_Gen] showed 30 nM (5 of 6 replicates).

The variant S31D/G103L/S107E [GPLM_HC] showed no signal (0 of 6 replicates). The variant S31E/G61K [Ctrl+GPLM_HC] gave 2.0 nM (12 of 12 replicates). For G26K/T28D/R56K/G61A/A101N [GP_Gibbs], the assay gave 1.4 nM (6 of 6 replicates). The variant F27P/S53A/G99D/F105N/D106K [Rand] showed no signal (0 of 6 replicates). The variant G26K/T28N/A101E [GP_Gen] showed 110 nM (4 of 6 replicates). With G26K/S53A/R100Q [GPLM_Gen] the result was 18 nM (5 of 6 replicates).

The variant G26E/T28S/G61K/A101T [GP_Gibbs] gave 49 nM (6 of 6 replicates). The variant L29K/S53A/R56I/F105N/D106K [Rand] showed no signal (0 of 6 replicates). The variant T28H/A102I [Ctrl] gave no signal (0 of 6 replicates). For T28Q/S31D/G61Q/D106I [GP_HC], the assay gave no signal (0 of 6 replicates).

For reference, 3 entries of the list once more:

S31E/G61M/A101W [GPLM_HC]: 13 nM (3 of 6 replicates).
T28V/L29W/S31D/I34S/S63D [Ctrl]: no signal (0 of 6 replicates).
R100G/T104W/D106T [Ctrl]: no signal (0 of 6 replicates).

Where one sequence has several entries in the source, the replicates are pooled.
In the paper, a design with two or fewer of six values counts as a poor binder.
A sequence measured in both rounds can read differently, since the two assays cover different ranges.